System: Calf thymus DNA
Assay: Binding constant (log K) for DNA binding by ethidium bromide displacement
Type: nucleic-acid assay
Conditions: Bos taurus

`CNc1cc(NS(C)(=O)=O)ccc1Nc1c2ccccc2nc2ccccc12` showed a Log K of 6.42.
